# Earlier results in patent US10688087B2, “Pharmaceutical compositions and therapeutic methods employing a combination of a manganese complex compound and a non-manganese complex form of the compound” (PLEDPHARMA AB, priority 2009, dated 2020).
# Settings: dose level of 10 μmol/kg b.w. MnDPDP (Toft et al., 1997); cited from earlier work
smiles,measurement,value
"Cc1ncc(COP(=O)(O)O)c(CN(CCN(CC(=O)O)Cc2c(COP(=O)(O)O)cnc(C)c2O)CC(=O)O)c1O.[Mn] [MnDPDP, Manganese N,N′-bis-(pyridoxal-5-phosphate)-ethylenediamine-N,N′-diacetic acid]",fraction of MnDPDP metabolized into MnPLED,about ⅓
